Laboratory results published in paper doi:10.1101/2023.04.09.536153v2.

Protein sequences, listed by entry. Tags and fused reporters are not part of them. Residues count along the entry.
UniProt Q9Y4B6, 1073-1399 E1398S limits assumed: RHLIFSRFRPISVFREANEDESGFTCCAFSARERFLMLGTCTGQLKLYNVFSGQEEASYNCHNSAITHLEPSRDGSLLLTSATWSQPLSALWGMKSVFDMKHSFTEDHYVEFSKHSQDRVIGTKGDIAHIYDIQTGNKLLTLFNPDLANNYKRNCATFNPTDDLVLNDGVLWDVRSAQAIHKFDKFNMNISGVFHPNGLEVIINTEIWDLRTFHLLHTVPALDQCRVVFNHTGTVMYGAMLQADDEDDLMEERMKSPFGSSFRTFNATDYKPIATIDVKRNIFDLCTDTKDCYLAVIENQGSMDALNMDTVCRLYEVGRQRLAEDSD

Biological target: DCAF1(1073-1399)_E1398S (WDR domain, Avi/His-tagged) (Homo sapiens, UniProt Q9Y4B6, E1398S)
Assay: TR-FRET competition with bodipy ligand
Format: binding
Conditions: 30 mM phosphate pH 7.4, 140 mM NaCl, 22 °C; no BTK added

IC50: 20 nM
SMILES: CC(=O)NCCOCCOCCOCCOCCOCCOCCC(=O)N1CCN(c2ccc3c(NCCN)nc(C4(c5ccc(Cl)cc5)CCCC4)nc3c2)CC1
